The values below come from patent US9156877B2, “17-hydroxy-17-pentafluorethyl-estra-4,9(10)-dien-11-benzylidene derivatives, methods for the production thereof and use thereof for treating diseases” (Bayer Intellectual Property GmbH, priority 2009, dated 2015).

Chains of the proteins cited; added tags and fusions are not shown. Residues count along the entry.
UniProt P06401, 165-933: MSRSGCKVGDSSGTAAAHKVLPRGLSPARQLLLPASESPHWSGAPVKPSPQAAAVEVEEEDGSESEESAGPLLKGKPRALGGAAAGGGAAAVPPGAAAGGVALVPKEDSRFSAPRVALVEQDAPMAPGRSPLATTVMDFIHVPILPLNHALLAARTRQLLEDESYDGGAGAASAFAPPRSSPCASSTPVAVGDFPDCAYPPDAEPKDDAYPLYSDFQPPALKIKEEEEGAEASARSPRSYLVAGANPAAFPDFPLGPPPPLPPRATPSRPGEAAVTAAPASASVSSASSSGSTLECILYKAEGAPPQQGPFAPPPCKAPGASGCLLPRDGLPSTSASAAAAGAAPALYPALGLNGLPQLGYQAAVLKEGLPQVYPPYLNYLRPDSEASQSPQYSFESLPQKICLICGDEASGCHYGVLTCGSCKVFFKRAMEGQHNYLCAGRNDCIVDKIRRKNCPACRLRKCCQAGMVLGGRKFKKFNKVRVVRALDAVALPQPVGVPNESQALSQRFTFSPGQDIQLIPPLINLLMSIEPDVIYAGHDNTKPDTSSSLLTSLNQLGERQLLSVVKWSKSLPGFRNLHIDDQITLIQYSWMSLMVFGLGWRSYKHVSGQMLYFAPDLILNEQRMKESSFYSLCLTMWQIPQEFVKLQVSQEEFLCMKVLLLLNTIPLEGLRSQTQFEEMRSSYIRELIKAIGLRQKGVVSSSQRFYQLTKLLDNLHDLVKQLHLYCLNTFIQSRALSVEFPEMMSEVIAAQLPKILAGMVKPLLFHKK
UniProt P06401, whole entry: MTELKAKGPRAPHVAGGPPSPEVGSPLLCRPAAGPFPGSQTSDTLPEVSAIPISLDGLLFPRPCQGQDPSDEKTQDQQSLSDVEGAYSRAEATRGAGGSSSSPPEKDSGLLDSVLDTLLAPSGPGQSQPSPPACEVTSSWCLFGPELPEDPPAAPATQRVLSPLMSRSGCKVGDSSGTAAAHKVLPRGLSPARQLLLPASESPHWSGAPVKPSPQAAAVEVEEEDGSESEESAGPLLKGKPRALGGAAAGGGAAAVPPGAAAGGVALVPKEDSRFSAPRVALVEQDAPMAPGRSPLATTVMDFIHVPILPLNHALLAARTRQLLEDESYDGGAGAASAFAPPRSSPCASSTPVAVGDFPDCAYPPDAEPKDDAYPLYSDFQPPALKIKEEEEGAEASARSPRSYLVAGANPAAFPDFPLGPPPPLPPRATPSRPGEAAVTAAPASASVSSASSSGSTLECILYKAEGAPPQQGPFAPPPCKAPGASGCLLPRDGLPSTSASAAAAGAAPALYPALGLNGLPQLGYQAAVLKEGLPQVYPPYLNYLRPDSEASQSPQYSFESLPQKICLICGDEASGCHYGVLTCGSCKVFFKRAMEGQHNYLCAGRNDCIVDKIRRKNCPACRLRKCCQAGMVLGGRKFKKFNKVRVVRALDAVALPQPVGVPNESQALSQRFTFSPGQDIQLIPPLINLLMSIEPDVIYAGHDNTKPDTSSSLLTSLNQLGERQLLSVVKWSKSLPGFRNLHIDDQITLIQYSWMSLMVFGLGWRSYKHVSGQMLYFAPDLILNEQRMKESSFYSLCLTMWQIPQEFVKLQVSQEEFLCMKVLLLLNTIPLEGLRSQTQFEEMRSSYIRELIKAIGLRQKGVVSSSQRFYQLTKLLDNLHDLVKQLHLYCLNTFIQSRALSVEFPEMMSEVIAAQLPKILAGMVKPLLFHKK

Series [1] concerns the target human progesterone receptor A (Homo sapiens, UniProt P06401). In words: Progesterone receptor-antagonistic action in stably transfected SK-N-MC cells with MMTV-LUC reporter (PR-A). To be noted: read-out: PR-A IC50, antagonistic potency against 0.1 nmol/l promegestone, 24 hours, luciferase. As to the method: (§1) Determination of Progesterone Receptor-Antagonistic Action in Stable Transfectants of Human Neuroblastoma Cells (SK-N-MC Cells) with the Human Progesterone A or Progesterone B Receptor and an MN-LUC Reporter Construct
(§2) SK-N-MC cells (human neuroblastoma cells) which have been stably transfected with plasmids expressing the human progesterone receptor B (pRChPR-B-neo) or the human progesterone receptor A (pRChPR-A-neo) and a reporter construct (pMMTV-LUC) were incubated for 24 hours either in the absence (negative control) or in the presence of ascending amounts of the particular test compound (0.01 nmol/l, 0.1 nmol/l, 1 nmol/l, 10 nmol/l, 100 nmol/l and […]), in order to determine the agonistic efficacy. As a positive control of the reporter gene induction, the cells were treated with the synthetic gestagen promegestone (0.01 nmol/l, 0.1 nmol/l, 1 nmol/l, 10 nmol/l, 100 nmol/l and […]). To determine the antagonistic activity, the cells were treated with 0.1 nmol/l promegestone and additionally with ascending amounts of the particular test compound (0.01 nmol/l, 0.1 nmol/l, 1 nmol/l, 10 nmol/l, 100 nmol/l and […]). The activity of the reporter gene LUC (LUC=luciferase) was determined in the cell lysates and measured as RLU (relative light units). All measurements are reported as % efficacy and as EC50 and IC50 concentrations.

In series [2] the target is human progesterone receptor B (Homo sapiens, UniProt P06401). In words: Progesterone receptor-antagonistic action in stably transfected SK-N-MC cells with MMTV-LUC reporter (PR-B). To be noted: read-out: PR-B IC50, antagonistic potency against 0.1 nmol/l promegestone, 24 hours, luciferase. How it is done: as §1, §2
Series [3] in a line: Metabolic stability in human liver microsomes. How it is done: (§3) Determination of Metabolic Stability in Human and Rat Liver Microsomes
Isolated human liver microsomes (HLM) were used to assess the metabolic stability of compounds of general formula I.
The incubations were conducted with 2.4 ml of HLM solution (protein content 0.5 mg/ml), 30 μl of the test compound (final concentration 1 μM) and 0.6 ml of the cofactor mixture (═NADPH-generating system composed of 3 IU glucose-6-phosphate dehydrogenase, 14.6 mg glucose-6-phosphate, 1.2 mg NADP) at 37° C. in 100 mM phosphate buffer at pH 7.4. Samples were taken at 6 time points (2-60 min) and precipitated with an equal volume of methanol, and the recovery of the test substances used in the supernatant was determined by LC-MS/MS analysis. The half-life of substance degradation determined therefrom was used to calculate what is called the intrinsic clearance of the substance in the liver microsome preparation. With the aid of this, together with various physiological parameters (human hepatic blood flow: 1.3 l*kg/h; specific liver weight (per kg of body weight): 21 g/kg; microsomal protein content: 40 mg/g of liver), in accordance with the well-stirred model, (metabolic) in vivo clearance in relation to phase I reactions was predicted. […]

The nature of series [4]: Metabolic stability in rat liver microsomes. As to the method: as §3
The incubations were conducted with 2.4 ml of HLM solution (protein content 0.5 mg/ml), 30 μl of the test compound (final concentration 1 μM) and 0.6 ml of the cofactor mixture (═NADPH-generating system composed of 3 IU glucose-6-phosphate dehydrogenase, 14.6 mg glucose-6-phosphate, 1.2 mg NADP) at 37° C. in 100 mM phosphate buffer at pH 7.4. Samples were taken at 6 time points (2-60 min) and precipitated with an equal volume of methanol, and the recovery of the test substances used in the supernatant was determined by LC-MS/MS analysis. The half-life of substance degradation determined therefrom was used to calculate what is called the intrinsic clearance of the substance in the liver microsome preparation. With the aid of this, together with various physiological parameters (human hepatic blood flow: 1.3 l*kg/h; specific liver weight (per kg of body weight): 21 g/kg; microsomal protein content: 40 mg/g of liver), in accordance with the well-stirred model, (metabolic) in vivo clearance in relation to phase I reactions was predicted. In addition, under the assumptions that (i) absorption of the test substance is 100%, and (ii) the first pass is completely reflected by liver microsome metabolism, a maximum oral bioavailability (Fmax) was calculated.
In general terms: Liver microsomes are vesicles of endoplasmic reticulum, rich in cytochrome P450 enzymes.

Series [5] is described as follows: Solubility in aqueous medium at pH 7.4. The source says:
In addition, some compounds have an unusually good solubility, for this active ingredient class, in aqueous medium under physiological conditions (Table 2).

The structures appear in SMILES notation.

In the case of `C[C@]12C[C@H](c3ccc(/C=C/c4cccnc4)cc3)C3=C4CCC(=O)C=C4CC[C@H]3[C@@H]1CC[C@@]2(O)C(F)(F)C(F)(F)F`, the values for the IC50 in series [1] and in series [2] were 12 pM and 11 pM, respectively. Further, the “Predicted Fmax [%] (maximum oral bioavailability) Human” value in series [3] is 71%. Besides, the “Predicted clearance [l/h/kg] Human” value in series [3] (1 μM, well-stirred model) was 0.38 L/h/kg. The “Predicted Fmax [%] (maximum oral bioavailability) Rat” value in series [4] is 79%. Also, the “Predicted clearance [l/h/kg] Rat” value in series [4] (well-stirred model) was 0.9 L/h/kg. Further, the “Solubility at pH 7.4 [mg/l]” value in series [5] turned out to be 6 mg/l.

One may read the Solubility as how much of the substance goes into solution per volume. A high value points to a readily soluble substance.
